Measurements: PubChem BioAssay AID678 (Vanderbilt High Throughput Screening Facility, 2007)
Only a part is listed here, and it is no random draw. Active and inactive are the calls of the source.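 The calls were made as follows: active = fluorescence response below the plate's average for near-maximal glutamate wells, less 3 SD of those wells; inactive = the rest.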

What follows are compounds tested against Metabotropic glutamate receptor 4 (Homo sapiens) (UniProt Q14833) (assay: mGluR4 calcium signal in M1 antagonist follow-up – cell-based, antagonist mode, secondary assay 1, M1 allosteric modulator project (AID 678;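 also: raw unnormalized fluorescence span taken in the window right after glutamate addition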)). Details: CHO-mGluR4 calcium flux, Fluo-4 fluorescence, glutamate EC80; at 10 µM; stronger effect = lower value.

| SMILES | fluorescence response (max-min) |
| --- | --- |
| O=C(OC1CN2CCC1CC2)C1c2ccccc2Oc2ccccc21 (configuration not stated) | inactive: 257 |
| CCC(CO)(C(=O)OC1CN2CCC1CC2)c1ccccc1 (configuration not stated) | inactive: 232 |
